Earlier results in US20050003341A1, “Drug discovery assays based on the biology of atherosclerosis, cancer, and alopecia” (priority 2003, published 2005).
Like-named read-outs stand apart in the source and are kept apart here.

Experiments:
AR mRNA = details: 500 ng/ml, 60 minutes

FSH: follicle-stimulating hormone
ERK phosphorylation (ERK; Sertoli cells from 19-day-old rats, 100 ng/ml, 15 minutes): inhibition | ERK phosphorylation (ERK; oocytes and granulosa cells, dose dependent): stimulates | AR mRNA (AR mRNA): increase
